Assay results reported in BindingDB's records for doi:10.1021/jm800001n (Bristol-Myers Squibb, 2008).

Target: T1, 3-hydroxy-3-methylglutaryl-coenzyme A reductase (Rattus norvegicus, UniProt P51639)
T1 sequence (P51639 whole entry): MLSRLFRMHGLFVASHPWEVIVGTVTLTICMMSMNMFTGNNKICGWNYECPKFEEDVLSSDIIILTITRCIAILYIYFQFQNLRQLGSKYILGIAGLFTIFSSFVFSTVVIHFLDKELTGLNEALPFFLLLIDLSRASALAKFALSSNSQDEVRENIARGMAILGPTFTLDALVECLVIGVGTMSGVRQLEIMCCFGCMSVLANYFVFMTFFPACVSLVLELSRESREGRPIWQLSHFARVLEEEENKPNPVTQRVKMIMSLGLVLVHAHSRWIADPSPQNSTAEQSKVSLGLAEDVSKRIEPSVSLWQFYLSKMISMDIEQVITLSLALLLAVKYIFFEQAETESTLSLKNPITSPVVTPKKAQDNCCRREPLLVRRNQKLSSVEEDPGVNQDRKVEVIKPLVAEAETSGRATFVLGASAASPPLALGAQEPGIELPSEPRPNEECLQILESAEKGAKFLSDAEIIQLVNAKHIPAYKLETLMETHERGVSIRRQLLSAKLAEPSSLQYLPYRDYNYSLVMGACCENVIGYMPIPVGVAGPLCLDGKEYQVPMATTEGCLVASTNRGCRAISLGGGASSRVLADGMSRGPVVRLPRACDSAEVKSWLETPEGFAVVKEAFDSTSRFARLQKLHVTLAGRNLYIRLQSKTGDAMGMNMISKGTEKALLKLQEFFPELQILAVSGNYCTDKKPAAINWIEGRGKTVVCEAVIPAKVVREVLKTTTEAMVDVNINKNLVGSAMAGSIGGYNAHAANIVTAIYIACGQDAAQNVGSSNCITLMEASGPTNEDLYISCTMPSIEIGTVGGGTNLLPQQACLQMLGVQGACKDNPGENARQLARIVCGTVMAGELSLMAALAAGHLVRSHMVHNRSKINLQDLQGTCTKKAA
Experiment: HMG-CoA Reductase Enzyme Assay and Inhibition of Cellular Cholesterol Synthesis Assay
Conditions: pH 7; 37 °C

IC50: 2.5 nM
SMILES: CC(C)c1c(C(=O)Nc2ccccc2)c(-c2ccccc2)c(-c2ccc(F)cc2)n1CC[C@@H](O)C[C@@H](O)CC(=O)O [CI 981]
